Assay: Adsorption of aromatic substances on CTS crystalline anhydrate (Example C-3)
Format: physicochemical
Settings: aromatic substance adsorbed per 1 g of CTS crystalline anhydrate
Protocol: The following explains the experimental method in detail. […] The amount of the adsorbed aromatic substances was calculated by measuring the weight of the resulting powders and subtracting their starting powder weight (4 g).

- Amount of Adsorbed Substance: 0.22 g
Substance: 1-Butanol

Source: patent US20050013914A1, “Method of sustaining aroma and use thereof” (priority 2001, published 2005)
